Only a part of the results on these compounds is given; other tests are left out.

Data on one compound can be found in patent US4588580A.

A short description of data set [1]: drug binding in skin (fentanyl binding sites). As to conditions: variation between individuals and sites; base form.
Data set [2] can be described thus: solubility, saturation concentration and activity of drug in the reservoir.
Data set [3] is described as follows: permeability of normal human skin to fentanyl.

With `CCC(=O)N(c1ccccc1)C1CCN(CCc2ccccc2)CC1`, in data set [1], the “amount of drug in skin binding sites to be saturated before significant absorption” value was 25-75 μg/cm^2. The “solubility in ethanol versus water (in words)” value in data set [2] (ethanol vs water) was “substantially more soluble in ethanol than water”. For the same compound, in data set [2] (fentanyl in 30% ethanol), the saturation concentration came out at 8.8 mg/g. In addition, the “skin permeability (in words)” value in data set [3] (fentanyl citrate) is reported as “such a low skin permeability that it is not at all suitable for transdermal delivery even with the use of permeation enhancers”. Also, the “skin permeability, mean ± S.D.” value in data set [3] (normal human skin, fentanyl base) was “approximately 4±1.8 μg/cm^2 /hr”. Besides, the “skin permeability, most skin” value in data set [3] (normal skin, most skin) is recorded as 2-5 μg/cm^2 /hr.
